Structures can show the parent of a compound that is named as a salt.
Legend:
[1] = test system: panel of selected 67 commercially available receptors and enzymes; test: 67 off-target study (LeadProfilingScreen), whole panel; type: binding; details: 10 μM
Description: (§1) LeadProfilingScreen (Total # of Assays: 67)
(§2) To evaluate, in LeadProfilingScreen, the activity of test compound CN168 (Panlabs # 1251879). […]
(§3) Summary of Significant Results
(§4) Biochemical assay results are presented as the percent inhibition of specific binding or activity throughout the report.
(§5) All other results are expressed in terms of that assay's quantitation method.
(§6) • For primary assays, only the lowest concentration with a significant response judged by the assays' criteria, is […]
(§7) • Where applicable, either the secondary assay results with the lowest dose/concentration meeting the significance […]
(§8) • Unless otherwise requested, primary screening in duplicate with quantitative data (e.g., IC50 ± SEM, Ki ± SEM and nH) are shown where applicable for individual requested assays. In screening packages, primary screening in duplicate with semi-quantitative data (e.g., estimated IC50, Ki and nH) are shown where applicable (concentration range of 4 log units); available secondary functional assays are carried out ([…]) and MEC or MIC determined only if active in primary assays >50% at 1 log unit below initial test concentration. […]

[2] = test system: Glutamate, NMDA, Agonism; test: LeadProfilingScreen: Glutamate, NMDA, Agonism; type: binding, rat; details: 10 μM
[3] = test system: mice; test: Hemodynamic monitoring (systolic pressure, heart rate) and body weight; type: in vivo, mouse
Experimental: The baseline of every neurological behavior test was measured in 6-week-old C57BL/6J female mice prior to treatment. […] Three behavioral tests were performed on the same groups of animals once per week and no more than two behavioral tests on the same day. The first behavioral experiment was performed on the next day after the last course of treatment. Mechanical hyperalgesia was evaluated by using von Frey filament (#2390, IITC Inc., USA), thermal sensitivity was determined by the tail immersion assay (water temperature: 48–49 °C), and motor coordination was assessed by rotarod (#7750, Ugo Basile Biological Research Apparatus, Italy). After the first drug implantation, the body weight was recorded every 6 days throughout the entire experiment.
Noninvasive automatized tail-cuff system (Visitech Systems, Apex, NC, USA) was used to measure the systolic pressure and the heart rate of conscious mice. All mice were placed in a constant temperature platform at least three times to adapt the system prior to hemodynamic measurement. The root of the tail was mounted on the occlusion and sensor cuff after the mouse was placed in a constant temperature platform. Each mouse was measured for at least 15 repetitions to obtain the mean of systolic pressure and heart rate. The hemodynamic change of each mouse was measured at five different time points.

[4] = test system: Glutamate, NMDA, Phencyclidine; test: LeadProfilingScreen: Glutamate, NMDA, Phencyclidine; type: binding, rat; details: 10 μM
[5] = target: Adrenergic α2A (Homo sapiens, UniProt P08913); test: LeadProfilingScreen: Adrenergic α2A; type: binding
[6] = target: Serotonin (5-Hydroxytryptamine) 5-HT2B (Homo sapiens, UniProt P41595); test: LeadProfilingScreen: Serotonin 5-HT2B; type: binding; details: read-out: Inhibition (%), Serotonin (5-Hydroxytryptamine) 5-HT2B
Description: as §1, §2, §3, §4, §5, §6, §7, §8

[7] = test system: Nicotinic Acetylcholine; test: 67 off-target study: Nicotinic Acetylcholine (as named in Table S5); type: binding; details: 10 μM; item as named in Table S5
[8] = target: Muscarinic M2 (Homo sapiens, UniProt P08172); test: LeadProfilingScreen: Muscarinic M2; type: binding
[9] = target: Opiate µ (OP3, MOP) (Homo sapiens, UniProt P35372); test: LeadProfilingScreen: Opiate µ (OP3, MOP); type: binding
[10] = target: Platelet Activating Factor (PAF) (Homo sapiens, UniProt P25105); test: LeadProfilingScreen: Platelet Activating Factor (PAF); type: binding
[11] = target: Transporter, Norepinephrine (NET) (Homo sapiens, UniProt P23975); test: LeadProfilingScreen: Transporter, Norepinephrine (NET); type: binding
[12] = target: Sigma σ1 (Homo sapiens, UniProt Q99720); test: LeadProfilingScreen: Sigma σ1; type: binding
[13] = test system: sciatic nerve fibers; test: Ultrastructure evaluation of the sciatic nerve (TEM); type: in vivo, mouse
Description: Sciatic nerves were isolated from mice after drug treatment and behavioral tests to examine the ultrastructure of nerve fibers. […] To evaluate the integrity of myelin, we calculated the G-ratio (axon perimeter/myelin perimeter) in different treatment groups. Because the symptoms of PIPN mostly manifest with sensory impairment,[28] we roughly classified nerve fibers into larger fibers (diameter > 5 μm) and small fibers (diameter < 5 μm) depending on the type of sensory information conveyed.[29] Large fibers with greater than 5 μm diameter carry information related to proprioception, touch, and pressure. In contrast, small fibers with less than 5 μm diameter carry information related to temperature and pain.
Sciatic nerve samples from mice from each treatment group were isolated after the last time point of mouse behavioral tests. Fixation of sciatic nerves with 4% glutaraldehyde and post fixation with 1% osmium tetroxide solution at 4 °C were performed. […] Transmission electron microscopy (H7650, Hitachi) was used to observe the ultrastructure in the cross section of the sciatic nerves.

[14] = target: Dopamine D3 (Homo sapiens, UniProt P35462); test: LeadProfilingScreen: Dopamine D3; type: binding
[15] = target: hERG (Homo sapiens, UniProt Q12809); test: hERG patch-clamp assay (hERG-CHO, automated patch-clamp); type: cell-based; parameters: host or cells: CHO (hERG-CHO)
Experimental: CN016 were tested in the hERG (hERG-CHO, automated patch-clamp) assay and determined at Eurofins Panlabs (Missouri, USA). The experiment was accepted in accordance with Eurofins validation Standard Operating Procedure. The tested result […]
Table S3. Result of hERG patch-clamp assay of CN016

[16] = target: Calcium Channel N-Type (Rattus norvegicus, UniProt Q02294); test: LeadProfilingScreen: Calcium Channel N-Type; type: binding
[17] = target: Adenosine A2A (Homo sapiens, UniProt P29274); test: LeadProfilingScreen: Adenosine A2A; type: binding
[18] = target: Bradykinin B2 (Homo sapiens, UniProt P30411); test: LeadProfilingScreen: Bradykinin B2; type: binding
[19] = target: Glutamate, NMDA, Glycine (Rattus norvegicus, UniProt P35439); test: LeadProfilingScreen: Glutamate, NMDA, Glycine; type: binding
[20] = CN016 (5, 10 or 20 mg/kg) and paclitaxel (4.5 mg/kg)

O=P(O)(O)CCN1CCC(Nc2cc(N3CCOCC3)nc(NCc3cn(CCCO)nn3)n2)CC1 [CN016, {2-[4-(2-{[1-(3-Hydroxy-propyl)-1H-[1,2,3]triazol-4-ylmethyl]-amino}-6-morpholin-4-yl-pyrimidin-4-ylamino)-piperidin-1-yl]-ethyl}-phosphonic Acid Hydrobromide Salt]
Significant responses (≥ 50% inhibition or stimulation) in the primary assays [1]: No significant results noted | inhibitory activity for each tested item of the 67 panel [1]: < 20% | Inhibition (%), Glutamate, NMDA, Agonism [2]: -3% | harmful effects, including heart rhythm, systolic blood pressure, and weight change ([3]; 20 mg/kg): no harmful effects | heart rhythm variability [3, 20]: did not cause | systolic blood pressure fluctuations [3, 20]: did not cause | weight change [3, 20]: did not cause | Inhibition (%), Glutamate, NMDA, Phencyclidine [4]: -4% | inhibition at 10 µM [5]: -4% | inhibition at 10 µM [6]: 10% | Inhibition (%), Nicotinic Acetylcholine [7]: -6% | inhibition at 10 µM [8]: -1% | inhibition at 10 µM [9]: 1% | inhibition at 10 µM [10]: -6% | inhibition at 10 µM [11]: -1% | inhibition at 10 µM [12]: 0% | myelinated fiber density of sciatic nerve (restoration of fiber loss) ([13]; dose-dependent, particularly at 20 mg/kg): significantly restored | integrity of large fibers (diameter > 5 μm) of sciatic nerve ([13]; paclitaxel with pretreated CN016 5, 10 and 20 mg/kg): did not affect the integrity of large fibers | G-ratio in small fibers (diameter < 5 μm) of sciatic nerve ([13]; pretreated, particularly at 10 or 20 mg/kg, paclitaxel-treated mice): could rescue the observed axonal damage | proportion of atypical mitochondria in sciatic nerve ([13]; pretreatment, paclitaxel-treated mice): significantly decreased | inhibition at 10 µM [14]: -3% | inhibition at 1 µM ([15]; human, CHO cells that express hERG (hERG-CHO), 1 μM): 6% | inhibition at 10 µM ([15]; human, CHO cells that express hERG (hERG-CHO), 10 μM): 19.1% | inhibition at 100 µM ([15]; human, CHO cells that express hERG (hERG-CHO), 100 μM): 32.9% | hERG liability ([15]; up to 100 μM, patch-clamp): not observed | inhibition at 10 µM [16]: 1% | inhibition at 10 µM [17]: 5% | inhibition at 10 µM [18]: -4% | inhibition at 10 µM [19]: -5%
